Experimental data: patent publication US7723023B2, “Use of intrinsic reporters of cell signaling for high content drug profiling and toxicity screening” (Mount Sinai School of Medicine, priority 2001, dated 2010)

Test system: serotonin 5-HT2A receptor
Assay: Early gene expression in mouse somatosensory cortex after drug injection, real-time PCR
Format: in vivo
Conditions: 1 h after i.p. exposure

For `CCN(CC)C(=O)N[C@H]1C=C2c3cccc4[nH]cc(c34)C[C@H]2N(C)C1` [lisuride], the “Induction of the 8 early genes in serotonin 5HT2A receptor gene-knockout mouse” value was “no induction was observed”.
